Columns and labels:
ATR kinase = ATR kinase (Homo sapiens (Human), UniProt Q13535); test: ATR kinase activity assay (time-resolved fluorescence, p53 substrate phosphorylation); conditions: read-out: ATR/IC50
Protocol: Biotinylated protein derived from p53 (Eurofins, art. No.: 14-952) was phosphorylated with ATR kinase. The amount of phosphorylated protein was determined by time-resolved fluorescence in this assay. The amount of phosphorylated protein was detected by anti-p53-phospho-(serine 15)-K-specific antibody (Cisbio, art. No.: 61GSTDLA) and d2 labeled anti-GST antibody (Cisbio, art. No. 61P08KAE). Before the experiment, the following working solution was prepared as required: 1× reaction buffer (20 mM HEPES PH8.0, 1% glycerol, 0.01% Brij-35), dilution buffer (20 mM HEPES PH8.0, 1% glycerol, 0.01% Brij-35, 5 mM DTT and 1% BSA), stop solution (20 mM HEPES PH8.0, 1% glycerol, 0.01% Brij-35, 250 mM EDTA), detection buffer (50 mM HEPES pH7.0, 150 mM NaCl, 267 mM KF, 0.1% sodium cholate, 0.01% Tween-20, 0.0125% sodium azide). […]
4× gradient dilution of compound solutions was prepared with 1× reaction buffer to obtain 9 compound solutions of different concentrations, and 2.5 μL 4× gradient dilution of compound solutions was added to a 384-well analysis plate (784075, Greiner). […] Finally, 5 μL test mixture (0.084 ng/μL Anti-phospho-p53(ser15)-K and 5 ng/μL Anti-GST-d2) was added to the 384 well analysis plate, incubated overnight at room temperature, and the fluorescence signal was detected with ENVISION (Perkinelmer) instrument (excitation wavelength: 320 nm, emission wavelength: 665 nm and 615 nm). […]

By UniProt entry, the sequences of proteins in these tests, tags left out.
UniProt Q13535, whole entry: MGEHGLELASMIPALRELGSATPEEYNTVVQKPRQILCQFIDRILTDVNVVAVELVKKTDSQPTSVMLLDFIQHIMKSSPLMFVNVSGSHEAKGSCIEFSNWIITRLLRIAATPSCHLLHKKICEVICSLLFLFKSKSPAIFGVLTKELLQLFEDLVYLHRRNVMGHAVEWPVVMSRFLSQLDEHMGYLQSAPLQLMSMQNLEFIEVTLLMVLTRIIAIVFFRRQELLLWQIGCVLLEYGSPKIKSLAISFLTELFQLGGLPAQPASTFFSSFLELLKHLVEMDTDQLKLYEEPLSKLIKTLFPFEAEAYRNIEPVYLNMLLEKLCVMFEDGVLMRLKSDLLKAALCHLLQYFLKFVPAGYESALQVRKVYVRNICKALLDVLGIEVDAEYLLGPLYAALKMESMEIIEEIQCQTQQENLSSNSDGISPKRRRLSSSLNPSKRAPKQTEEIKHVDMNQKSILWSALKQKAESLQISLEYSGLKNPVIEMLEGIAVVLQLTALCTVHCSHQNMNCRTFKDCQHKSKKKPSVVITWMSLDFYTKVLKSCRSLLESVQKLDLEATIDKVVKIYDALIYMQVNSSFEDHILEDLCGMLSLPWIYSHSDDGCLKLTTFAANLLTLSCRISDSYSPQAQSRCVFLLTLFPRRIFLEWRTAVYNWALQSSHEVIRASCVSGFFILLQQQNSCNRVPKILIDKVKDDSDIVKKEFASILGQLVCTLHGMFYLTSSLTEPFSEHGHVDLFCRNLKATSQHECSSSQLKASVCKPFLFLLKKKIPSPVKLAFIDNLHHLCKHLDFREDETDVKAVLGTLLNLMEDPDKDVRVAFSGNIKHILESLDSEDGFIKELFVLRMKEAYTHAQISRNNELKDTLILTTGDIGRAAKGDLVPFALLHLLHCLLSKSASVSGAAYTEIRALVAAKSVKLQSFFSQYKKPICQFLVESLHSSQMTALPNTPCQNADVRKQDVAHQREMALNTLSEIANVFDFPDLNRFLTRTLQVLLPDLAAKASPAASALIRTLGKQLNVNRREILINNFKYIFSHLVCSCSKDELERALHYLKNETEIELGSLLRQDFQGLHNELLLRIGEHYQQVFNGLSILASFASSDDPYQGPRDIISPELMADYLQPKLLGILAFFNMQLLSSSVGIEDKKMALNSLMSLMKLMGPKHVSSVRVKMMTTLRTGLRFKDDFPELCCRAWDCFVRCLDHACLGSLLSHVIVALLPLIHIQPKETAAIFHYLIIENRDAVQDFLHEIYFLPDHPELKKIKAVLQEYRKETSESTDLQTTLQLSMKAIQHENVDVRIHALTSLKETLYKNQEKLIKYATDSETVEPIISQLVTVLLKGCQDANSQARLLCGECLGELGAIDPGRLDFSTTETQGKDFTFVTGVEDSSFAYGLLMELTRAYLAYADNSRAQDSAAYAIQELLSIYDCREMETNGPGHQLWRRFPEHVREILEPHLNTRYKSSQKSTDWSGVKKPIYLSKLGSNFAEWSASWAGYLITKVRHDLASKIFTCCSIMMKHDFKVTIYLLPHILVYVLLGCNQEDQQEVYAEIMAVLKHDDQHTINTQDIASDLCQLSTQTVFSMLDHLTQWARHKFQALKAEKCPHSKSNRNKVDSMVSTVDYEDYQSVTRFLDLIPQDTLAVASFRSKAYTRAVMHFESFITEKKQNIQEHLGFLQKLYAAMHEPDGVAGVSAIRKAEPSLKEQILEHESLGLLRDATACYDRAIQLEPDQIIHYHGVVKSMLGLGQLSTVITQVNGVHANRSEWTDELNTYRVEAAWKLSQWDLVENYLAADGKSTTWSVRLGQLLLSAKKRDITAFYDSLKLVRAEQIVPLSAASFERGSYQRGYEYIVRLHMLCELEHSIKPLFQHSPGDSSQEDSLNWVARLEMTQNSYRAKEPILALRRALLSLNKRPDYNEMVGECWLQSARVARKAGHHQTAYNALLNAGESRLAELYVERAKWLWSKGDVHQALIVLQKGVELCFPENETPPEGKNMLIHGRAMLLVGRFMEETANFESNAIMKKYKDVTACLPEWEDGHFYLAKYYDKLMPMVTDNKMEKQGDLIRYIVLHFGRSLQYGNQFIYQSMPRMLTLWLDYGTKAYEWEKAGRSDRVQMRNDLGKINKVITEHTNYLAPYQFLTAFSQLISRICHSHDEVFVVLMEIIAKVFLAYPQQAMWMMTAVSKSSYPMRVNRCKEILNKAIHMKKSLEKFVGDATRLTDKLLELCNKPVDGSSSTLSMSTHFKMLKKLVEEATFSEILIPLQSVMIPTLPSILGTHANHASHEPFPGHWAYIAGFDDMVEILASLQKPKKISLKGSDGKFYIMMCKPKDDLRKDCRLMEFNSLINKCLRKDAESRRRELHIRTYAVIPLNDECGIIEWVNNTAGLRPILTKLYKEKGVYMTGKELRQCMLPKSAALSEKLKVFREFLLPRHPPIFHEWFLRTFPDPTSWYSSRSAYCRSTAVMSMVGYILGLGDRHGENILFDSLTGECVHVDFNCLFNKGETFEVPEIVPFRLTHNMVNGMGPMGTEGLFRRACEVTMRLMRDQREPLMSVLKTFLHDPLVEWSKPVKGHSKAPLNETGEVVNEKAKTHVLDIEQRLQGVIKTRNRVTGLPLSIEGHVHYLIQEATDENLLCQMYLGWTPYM
UniProt Q8WXE1, whole entry partner: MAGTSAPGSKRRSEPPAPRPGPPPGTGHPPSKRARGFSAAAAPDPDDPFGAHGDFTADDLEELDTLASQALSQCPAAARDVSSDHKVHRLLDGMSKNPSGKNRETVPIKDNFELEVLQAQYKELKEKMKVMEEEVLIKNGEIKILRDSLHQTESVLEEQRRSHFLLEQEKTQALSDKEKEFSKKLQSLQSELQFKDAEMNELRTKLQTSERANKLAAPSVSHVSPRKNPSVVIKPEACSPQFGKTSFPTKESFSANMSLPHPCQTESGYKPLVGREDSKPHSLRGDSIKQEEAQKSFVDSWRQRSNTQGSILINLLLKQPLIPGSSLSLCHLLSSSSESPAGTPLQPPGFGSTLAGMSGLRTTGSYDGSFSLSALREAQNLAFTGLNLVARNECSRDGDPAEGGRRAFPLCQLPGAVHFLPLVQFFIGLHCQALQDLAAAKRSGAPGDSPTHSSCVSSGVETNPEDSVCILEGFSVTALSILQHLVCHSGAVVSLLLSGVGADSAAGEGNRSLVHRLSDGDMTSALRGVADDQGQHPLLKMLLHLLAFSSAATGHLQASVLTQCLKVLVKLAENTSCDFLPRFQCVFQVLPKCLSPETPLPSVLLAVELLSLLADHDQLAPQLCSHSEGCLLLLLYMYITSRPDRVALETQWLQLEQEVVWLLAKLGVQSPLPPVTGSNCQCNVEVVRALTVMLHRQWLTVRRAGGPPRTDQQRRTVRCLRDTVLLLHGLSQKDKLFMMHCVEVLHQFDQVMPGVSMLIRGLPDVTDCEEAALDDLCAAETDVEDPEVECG

MV4-11 (leukemia) cells = test: In vitro cell proliferation inhibition assay (CellTiter-Glo), MV4-11; type: cell-based, human; conditions: read-out: MV4-11/IC50, MV4-11 cells, 120 hours
Protocol: (§1) By detecting the effect of compound on cell activity in vitro in the tumor cell lines TOV21G (ovarian cancer) and MV4-11 (leukemia), the effect of compound inhibiting cell proliferation was studied in this assay.
(§2) TOV21G cells and MV4-11 cells were purchased from American Type Culture Collection (ATCC).
MV-4-11 cells were cultured in IMDM medium (containing 20% FBS), each well of a 96-well culture plate was inoculated with about 10000 cells, and treated with different concentrations (0-10 μM) of compounds to be tested in triplex. Blank wells (containing medium only) and control wells (inoculated with cells but not treated with drug) were set. Cells were cultured for 120 hours, 40 μL Cell Titer-Glo solution was added to each well, incubated with shaking for 20 min in the dark, 100 μL solution was transferred from each well to a 96-well white plate, and the luminescence value was read by Biotek Synergy H1 multifunctional microplate reader. Inhibition rate (%)=100%×(control well−test well)/(control well−blank well)

[1] = test system: TOV21G (ovarian cancer) cells; test: In vitro cell proliferation inhibition assay (CellTiter-Glo), TOV21G; type: cell-based, human; conditions: read-out: TOV21G/IC50, 120 hours
Protocol: as §1, §2
TOV21G cells were cultured in MCDB105/M199 medium (containing 15% […]), and used for testing when the cell confluence reaches 85% or more. Each well of a 96-well culture plate was inoculated with about 1000 cells, cultured for 24 hours, and treated with different concentrations (0-10 μM) of compound solution to be tested in triplex. Blank wells (contains medium only) and control wells (seeded cells was not treated with drug) were set. Cells were cultured for 120 hours, 40 μL Cell Titer-Glo solution (Promega, #G7573) were added to each well, incubated with shaking for 20 min in the dark, 100 μL solution was transferred from each well to a 96-well white plate (Corning, #3917), and the luminescence value was read by Biotek Synergy H1 multifunctional microplate reader.

Row | IC50 (MV4-11 (leukemia) cells) [nM] | IC50 [1] [nM] | Structure (SMILES) | IC50 (ATR kinase) [nM]
1 | 640 | 660 | CNc1nc2cc(F)ccc2n1-c1nc(-c2c(C)nn(C3CCNCC3)c2C)cc(N2CCOC[C@H]2C)n1 | 15
2 | 840 | 740 | CNc1nc2cc(F)ccc2n1-c1nc(-c2c(C)nn(C3CCCNC3)c2C)cc(N2CCOC[C@H]2C)n1 (some centres unmarked) | –

Row | Structure (SMILES) | IC50 (MV4-11 (leukemia) cells) [nM] | IC50 [1] [nM] | IC50 (ATR kinase) [nM]
3 | CNc1nc2cc(F)ccc2n1-c1nc(-c2c(C)nn(C3CCN(C)CC3)c2C(F)(F)F)cc(N2CCOC[C@H]2C)n1 | 250 | 770 | 17

Reference: US12544382B2, “2, 4, 6-tri-substituted pyrimidine compound as ATR kinase inhibitor” (BEIJING TIDE PHARMACEUTICAL CO., LTD., priority 2019, dated 2026)
